From patent publication US10668043B2, “Potentiated antimicrobial agents” (priority 2014, dated 2020) come the findings set out here.

This data set has as its system MSSA 8238. Particulars: Sc., gentamycin 6 mg/kg or amoxicillin 30 mg/kg, cineol 30 mg/kg where present.

Where two headings read alike, the source gives them in different places.

Consider gentamycin, for which the “c/MIC (plasma efficient concentration/MIC ratio)” value reads like this: (0.083 h post-injection) 10; (1 h post-injection) 3; (2 h post-injection) 4; (5 h post-injection) 0.2; (8 h post-injection) 0.2; (24 h post-injection) 0.155.
